{"sequences": {"note": "Chains of the proteins cited; added tags and fusions are not shown. Lines headed by an entry give the natural chain unless they say otherwise; changes in a name come on top.", "UniProt O94782": "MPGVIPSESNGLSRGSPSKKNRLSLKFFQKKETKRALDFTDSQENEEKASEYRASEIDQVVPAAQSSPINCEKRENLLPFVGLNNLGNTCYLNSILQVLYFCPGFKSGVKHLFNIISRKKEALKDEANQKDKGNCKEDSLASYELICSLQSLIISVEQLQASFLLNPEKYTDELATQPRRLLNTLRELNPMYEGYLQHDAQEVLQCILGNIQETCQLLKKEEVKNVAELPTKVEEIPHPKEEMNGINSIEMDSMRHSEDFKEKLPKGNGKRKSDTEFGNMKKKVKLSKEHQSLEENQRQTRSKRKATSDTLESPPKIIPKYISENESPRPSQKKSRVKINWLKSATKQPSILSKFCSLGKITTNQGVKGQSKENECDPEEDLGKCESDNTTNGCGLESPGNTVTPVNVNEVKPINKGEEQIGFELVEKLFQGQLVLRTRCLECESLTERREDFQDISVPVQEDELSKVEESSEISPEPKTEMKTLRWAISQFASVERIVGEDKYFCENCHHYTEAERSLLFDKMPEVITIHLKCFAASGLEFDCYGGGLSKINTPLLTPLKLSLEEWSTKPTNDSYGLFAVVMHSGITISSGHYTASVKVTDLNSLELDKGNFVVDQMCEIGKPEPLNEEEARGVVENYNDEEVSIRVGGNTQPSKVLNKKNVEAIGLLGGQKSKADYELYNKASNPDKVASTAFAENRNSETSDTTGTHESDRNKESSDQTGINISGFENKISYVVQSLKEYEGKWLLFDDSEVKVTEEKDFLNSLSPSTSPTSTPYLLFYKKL", "UniProt Q03181": "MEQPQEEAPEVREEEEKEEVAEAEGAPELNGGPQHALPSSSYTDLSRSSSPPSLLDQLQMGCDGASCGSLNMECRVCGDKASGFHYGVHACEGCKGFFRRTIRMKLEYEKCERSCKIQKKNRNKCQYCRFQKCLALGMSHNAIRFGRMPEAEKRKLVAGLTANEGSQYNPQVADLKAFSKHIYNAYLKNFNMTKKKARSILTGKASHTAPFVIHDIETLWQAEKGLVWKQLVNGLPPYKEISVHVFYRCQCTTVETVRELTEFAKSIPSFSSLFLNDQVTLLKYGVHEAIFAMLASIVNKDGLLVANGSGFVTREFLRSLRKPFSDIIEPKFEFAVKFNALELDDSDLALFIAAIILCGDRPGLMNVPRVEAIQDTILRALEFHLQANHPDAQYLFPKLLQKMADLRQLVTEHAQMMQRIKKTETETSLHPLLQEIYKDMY", "UniProt P19793": "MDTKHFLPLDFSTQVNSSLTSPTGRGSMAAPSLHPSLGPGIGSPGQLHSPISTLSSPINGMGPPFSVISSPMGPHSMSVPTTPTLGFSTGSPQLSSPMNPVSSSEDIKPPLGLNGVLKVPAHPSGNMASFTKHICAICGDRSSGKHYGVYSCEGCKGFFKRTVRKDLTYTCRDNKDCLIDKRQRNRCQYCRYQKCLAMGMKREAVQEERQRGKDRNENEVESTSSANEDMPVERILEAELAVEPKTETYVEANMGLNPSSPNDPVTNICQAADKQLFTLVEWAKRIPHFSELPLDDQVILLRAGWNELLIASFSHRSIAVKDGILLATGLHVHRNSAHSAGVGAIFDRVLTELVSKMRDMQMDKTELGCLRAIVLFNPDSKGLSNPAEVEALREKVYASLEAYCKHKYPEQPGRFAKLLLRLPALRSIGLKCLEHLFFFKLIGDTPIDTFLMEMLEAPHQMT", "UniProt P08659, whole entry, looked up": "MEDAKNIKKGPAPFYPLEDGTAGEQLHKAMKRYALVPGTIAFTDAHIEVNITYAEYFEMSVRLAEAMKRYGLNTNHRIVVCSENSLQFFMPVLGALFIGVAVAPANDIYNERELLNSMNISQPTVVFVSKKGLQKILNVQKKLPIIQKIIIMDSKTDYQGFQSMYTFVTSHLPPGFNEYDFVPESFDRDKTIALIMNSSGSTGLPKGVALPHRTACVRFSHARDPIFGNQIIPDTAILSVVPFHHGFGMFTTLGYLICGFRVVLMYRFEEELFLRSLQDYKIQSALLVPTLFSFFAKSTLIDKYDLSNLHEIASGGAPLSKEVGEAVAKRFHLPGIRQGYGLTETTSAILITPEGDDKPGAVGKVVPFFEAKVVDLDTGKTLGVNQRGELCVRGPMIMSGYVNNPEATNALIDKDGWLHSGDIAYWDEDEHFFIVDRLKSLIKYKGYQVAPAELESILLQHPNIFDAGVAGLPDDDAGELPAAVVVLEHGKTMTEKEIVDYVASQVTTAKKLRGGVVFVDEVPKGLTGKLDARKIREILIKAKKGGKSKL", "UniProt O75604": "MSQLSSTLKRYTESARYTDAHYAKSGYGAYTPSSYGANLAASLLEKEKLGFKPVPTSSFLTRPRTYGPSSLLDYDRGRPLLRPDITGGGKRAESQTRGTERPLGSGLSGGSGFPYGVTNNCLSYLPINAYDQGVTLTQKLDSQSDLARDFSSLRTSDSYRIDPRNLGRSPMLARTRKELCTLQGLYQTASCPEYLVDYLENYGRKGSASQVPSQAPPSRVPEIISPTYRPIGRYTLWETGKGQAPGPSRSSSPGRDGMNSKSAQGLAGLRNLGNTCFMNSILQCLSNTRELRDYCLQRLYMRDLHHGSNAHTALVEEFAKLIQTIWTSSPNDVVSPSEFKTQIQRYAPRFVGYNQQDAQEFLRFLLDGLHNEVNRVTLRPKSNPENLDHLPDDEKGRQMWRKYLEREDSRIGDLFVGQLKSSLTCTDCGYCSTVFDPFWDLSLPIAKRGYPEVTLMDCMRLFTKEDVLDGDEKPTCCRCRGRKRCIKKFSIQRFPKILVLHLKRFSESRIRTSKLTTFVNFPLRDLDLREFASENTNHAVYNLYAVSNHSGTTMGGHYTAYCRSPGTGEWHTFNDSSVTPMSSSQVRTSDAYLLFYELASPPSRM", "UniProt P07947, whole entry, looked up": "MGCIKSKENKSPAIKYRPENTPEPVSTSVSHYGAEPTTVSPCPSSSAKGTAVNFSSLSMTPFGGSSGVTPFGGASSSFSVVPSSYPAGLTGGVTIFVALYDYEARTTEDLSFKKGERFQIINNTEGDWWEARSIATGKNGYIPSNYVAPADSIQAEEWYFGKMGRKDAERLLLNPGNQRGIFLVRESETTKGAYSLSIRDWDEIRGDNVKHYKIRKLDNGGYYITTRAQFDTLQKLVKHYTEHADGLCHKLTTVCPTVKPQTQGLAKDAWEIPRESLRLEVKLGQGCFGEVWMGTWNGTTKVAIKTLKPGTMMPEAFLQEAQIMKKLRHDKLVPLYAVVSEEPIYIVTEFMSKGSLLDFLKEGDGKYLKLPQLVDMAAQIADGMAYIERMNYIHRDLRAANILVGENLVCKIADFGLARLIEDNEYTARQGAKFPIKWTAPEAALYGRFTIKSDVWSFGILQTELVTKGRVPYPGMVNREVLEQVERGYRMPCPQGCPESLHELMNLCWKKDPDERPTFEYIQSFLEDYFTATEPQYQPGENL"}, "source": "PubChem BioAssay (NCATS)", "key": {"[1]": {"target": "Ubiquitin carboxyl-terminal hydrolase 1 (Homo sapiens) (UniProt O94782)", "assay": "Inhibitors of USP1/UAF1: Pilot qHTS (AID 504865);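 further: rhodamine fluorescence freed from ubiquitin-rhodamine substrate followed over time; top concentration of the series differs between compounds; on the % scale 0 is the no-effect control and ±100 the full control effect; nearly all actives have a fitted effect of over 35% in size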", "settings": "purified USP1/UAF1, Ub-rhodamine cleavage fluorescence", "summary_of_the_method": "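Enzyme-free wells gave the negative control, while test wells held 1nM USP1/UAF1 preincubated with compound for 15 min at room temperature. Ub-Rho at 150nM final started the reaction, and fluorescence at 480/540 nm was recorded kinetically.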"}, "[2]": {"target": "Peroxisome proliferator-activated receptor delta (Homo sapiens) (UniProt Q03181)", "assay": "qHTS assay for small molecule agonists of peroxisome proliferator-activated receptor delta signaling (AID 588534; calls by dose curve)", "settings": "HEK293T PPARdelta-UAS-bla, beta-lactamase ratio, 18 h; at 76.7 µM (top of the series)"}, "[3]": {"target": "Vitamin D3 receptor (Homo sapiens) (UniProt P11473)", "assay": "qHTS assay for small molecule agonists of vitamin D receptor signaling (AID 588543; calls by dose curve;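 further: 0% = DMSO basal and 100% = reference agonist control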)", "settings": "HEK293T VDR-UAS-bla, beta-lactamase ratio, 16 h; at 76.8 µM (top of the series)", "summary_of_the_method": "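Measured: β-lactamase reporter activity (CCF4, 405 nm excitation, 460/530 nm emission) in HEK293T VDR-UAS-bla cells after 16 h compound exposure at 37 °C. Normalization against 50 nM 1α,25-dihydroxyvitamin D3 and DMSO; Hill-fit EC50.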"}, "[4]": {"assay": "qHTS assay for small molecule agonists of retinoid X receptor alpha signaling (AID 588544; calls by dose curve)", "settings": "HEK293T RXRa-UAS-bla, beta-lactamase reporter, 18 h; 530 nm emission"}, "[5]": {"target": "Retinoic acid receptor RXR-alpha (Homo sapiens) (UniProt P19793)", "assay": "qHTS assay for small molecule agonists of retinoid X receptor alpha signaling (AID 588544);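 on activation: 0% = DMSO basal wells and 100% = reference agonist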", "settings": "HEK293T RXRa-UAS-bla, beta-lactamase reporter, 18 h; at 76.7 µM (top of the series)"}, "[6]": {"assay": "qHTS assay for small molecule antagonists of retinoid X receptor alpha signaling (AID 588546; active means well fitted inhibition curve with a large enough effect in the signal ratio, with a control signal flat, not every such curve was filed as active; the % refers to the signal ratio; further: potency means the concentration at half of the fitted maximal effect; on max response: on the % scale 0 is the no-effect control and ±100 the full control effect)", "settings": "HEK293T RXRa-UAS-bla, beta-lactamase ratio, antagonist mode; measured here: W530 green channel, cytotoxicity proxy", "summary_of_the_method": "(§1)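 Beta-lactamase reporter inhibition, read as CCF4 fluorescence ratio (ex 405, em 460/530 nm) after 2 h at RT. HEK293T UAS-bla cells, 2500/well, were stimulated with 9-cis-RA at 500 or 100 nM final alongside test compound for 18 h at 37 C.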"}, "[7]": {"target": "Retinoic acid receptor RXR-alpha (Homo sapiens) (UniProt P19793)", "assay": "qHTS assay for small molecule antagonists of retinoid X receptor alpha signaling (AID 588546)", "settings": "HEK293T RXRa-UAS-bla, beta-lactamase ratio, antagonist mode", "summary_of_the_method": "as §1"}, "[8]": {"target": "Luciferin 4-monooxygenase (Photinus pyralis) (UniProt P08659)", "assay": "Biochemical firefly luciferase enzyme assay for NPC (AID 624030)", "settings": "purified P. pyralis luciferase, luminescence, 5 min", "summary_of_the_method": "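Counter-screen for direct inhibition of the luciferase enzyme by approved-drug library compounds, run at 10 nM enzyme in 50 mM Tris acetate (final). Luminescence was read within 5 min of enzyme-buffer addition and normalized to PTC124 versus DMSO (0%).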"}, "[9]": {"target": "Ubiquitin carboxyl-terminal hydrolase 2 (Homo sapiens) (UniProt O75604)", "assay": "qHTS for Inhibitors of Ubiquitin-specific Protease USP2a Using CHOP2 as the Reporter: K484 Substrate (AID 652173)", "settings": "USP2 cleavage of DiUb K48 IQF substrate, fluorescence", "summary_of_the_method": "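USP2 (dispensed at 5 nM) was pinned with compounds, then DiUb K48 internally quenched fluorescent substrate (dispensed at 100 nM) was added. The buffer was 20 mM Tris pH 8, 2 mM beta-mercaptoethanol and 0.05% CHAPS. Cleavage was read kinetically as rising fluorescence, Ex 525/Em 598.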"}, "[10]": {"target": "Tyrosine-protein kinase Yes (Homo sapiens) (UniProt P07947)", "assay": "qHTS for small molecule inhibitors of Yes1 kinase: Primary Screen (AID 686947)", "settings": "Yes1 kinase biochemical qHTS inhibition", "summary_of_the_method": "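ADP-Glo luminescence readout; final 4 nM Yes1, 0.1 mM ATP, 0.3 mg/mL poly(E4Y), Tris pH 7.5, MgCl2, DTT, Brij-35. 20 min compound preincubation, 60 min reaction at RT. Normalized to DMSO wells with and without enzyme.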"}, "[11]": {"assay": "qHTS profiling of the MIPE4 collection as inhibitors of Plasmodium falciparum (3D7) proliferation (AID 743344; call rule not given here)", "settings": "P. falciparum 3D7 in erythrocytes, SYBR Green DNA fluorescence, 72 h; at 28.5 µM (top of the series)", "summary_of_the_method": "(§2)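 Erythrocytes infected with P. falciparum (0.3% parasitemia, 2.5% hematocrit) incubated with compounds 72 h at 37 C, 5% CO2. Lysis with saponin/Triton buffer containing SYBR Green I, overnight at room temperature in the dark; DNA fluorescence (485/535 nm) normalised to 0.29 uM artemisinin and DMSO.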"}, "[12]": {"assay": "qHTS profiling of the MIPE4 collection as inhibitors of Plasmodium falciparum (DD2) proliferation (AID 743345; call rule not given here)", "settings": "P. falciparum Dd2 in erythrocytes, SYBR Green DNA, 72 h; at 28.5 µM (top of the series)", "summary_of_the_method": "as §2"}, "[13]": {"assay": "qHTS profiling of the MIPE4 collection as inhibitors of Plasmodium falciparum (DD2) proliferation (Rep 2) (AID 743346; call rule not given here)", "settings": "P. falciparum Dd2 in erythrocytes, SYBR Green DNA, 72 h; at 28.5 µM (top of the series)", "summary_of_the_method": "as §2"}, "[14]": {"assay": "qHTS profiling of the MIPE4 collection as inhibitors of Plasmodium falciparum (HB3) proliferation (AID 743347; call rule not given here)", "settings": "P. falciparum HB3 in erythrocytes, SYBR Green DNA, 72 h; at 28.5 µM (top of the series)", "summary_of_the_method": "as §2"}}, "note": "Where “and” joins values, the source holds several entries; their conditions need not be identical. Identical values can stand only once. For some assays here: What follows is the remainder of the data, with few or none of the hits. Results filed as inconclusive are left out. Only a part is listed here, and it is no random draw. Calls of active or inactive are those of the source. Unless noted, the call rests on the fitted dose curve; in most records, active means well fitted curve in the direction sought with a large enough effect; inconclusive means small, poorly fitted or top-dose-only effect, or another doubt; inactive means no such curve, though single readings can be large; an effect the other way counts as inactive or inconclusive.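 Wherever growth, % of control is given: plate controls were DMSO vehicle wells for no effect and artemisinin wells for full effect.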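 Wherever parasite growth, % of DMSO control is given: scaled between DMSO vehicle wells and 0.29 µM artemisinin as full inhibition.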", "data": [{"smiles": "CCCCc1oc2ccccc2c1C(=O)c1cc(I)c(OCCN(CC)CC)c(I)c1", "values": [{"measurement": "activity change, negative = inhibition", "setting": "[1]; at 54.9 µM (top of the series)", "result": "inactive: -0.63%"}, {"measurement": "activity change, negative = inhibition", "setting": "[1]; at 114 µM (top of the series)", "result": "inactive: -18.3%"}]}, {"smiles": "CN1CCCN=C1/C=C\\c1cccs1", "values": [{"measurement": "activity change, negative = inhibition", "setting": "[1]; at 54.9 µM (top of the series)", "result": "inactive: -10.4%"}]}, {"smiles": "NCCCC(O)(P(=O)(O)O)P(=O)(O)O", "values": [{"measurement": "activity change, negative = inhibition", "setting": "[1]; at 114 µM (top of the series)", "result": "inactive: -2.11% and inactive: -3.04%"}]}, {"smiles": "CC1=C(/C=C/C(C)=C/C=C/C(C)=C/C(=O)O)C(C)(C)CCC1", "values": [{"measurement": "activation", "setting": "[2]", "result": "inactive: 0.171%"}]}, {"smiles": "CC1=C(/C=C/C(C)=C/C=C/C(C)=C\\C(=O)O)C(C)(C)CCC1", "values": [{"measurement": "activation", "setting": "[2]", "result": "inactive: 5.66%"}]}, {"smiles": "CCCCC1C(=O)N(c2ccccc2)N(c2ccccc2)C1=O", "values": [{"measurement": "activation", "setting": "[3]", "result": "inactive: -0.369%"}]}, {"smiles": "CN1CCC[C@H]1c1cccnc1", "values": [{"measurement": "max response", "setting": "[4]", "result": "-20.5% and 7.93%"}, {"measurement": "activation", "setting": "[5]", "result": "inactive: 7.07% and inactive: 11.3%"}, {"measurement": "max response", "setting": "[6]", "result": "-12.1% and 0.794%"}, {"measurement": "max response", "setting": "[7]", "result": "inactive: 0.416% and inactive: -24.7%"}]}, {"smiles": "CC(C)(Sc1ccc(CCN(CCCCC2CCCCC2)C(=O)NC2CCCCC2)cc1)C(=O)O", "values": [{"measurement": "max response", "setting": "[6]", "result": -9.29, "unit": "%"}, {"measurement": "Potency", "setting": "[7]", "result": "active: 35.5 µM"}]}, {"smiles": "O=C(c1ccccc1)c1ccc2n1CCC2C(=O)O", "note": "(stereo not given)", "values": [{"measurement": "Potency", "setting": "[8]", "result": "active: 11.4 µM"}]}, {"smiles": "Cc1ccc(S(=O)(=O)Nc2cc(C(F)(F)F)ccc2C(=O)Nc2nc(-c3ccccc3)cs2)cc1", "values": [{"measurement": "Potency", "setting": "[9]", "result": "active: 1.09 µM"}]}, {"smiles": "CCN1CCN(Cc2ccc(-c3cc4c(N[C@H](C)c5ccccc5)ncnc4[nH]3)cc2)CC1", "values": [{"measurement": "Potency", "setting": "[10]", "result": "active: 0.0027 µM"}]}, {"smiles": "CN1C(C(=O)Nc2ccccn2)=C(O)c2sccc2S1(=O)=O", "values": [{"measurement": "parasite growth, % of DMSO control", "setting": "[11]", "result": 85.2, "unit": "%"}, {"measurement": "parasite growth remaining, % of DMSO control (lower = more inhibition)", "setting": "[12]", "result": 90.6, "unit": "%"}, {"measurement": "parasite growth, % of control (lower = inhibition)", "setting": "[13]", "result": 61.5, "unit": "%"}, {"measurement": "growth, % of control", "setting": "[14]", "result": 78.5, "unit": "%"}]}]}
